Measured values: patent publication US20200368364A1, “CYSTEINE PEPTIDE-ENABLED ANTIBODIES” (City of Hope, priority 2016, published 2020)

System: SKBR3 cells
Test: Cell viability (CellTiter-Glo) for DM1 and MMAE conjugates
Format: cell-based
Details: SKBR3, a HER2 positive tumor cell line; compared with the ADCs
Method: Mertansine (DM1) and monomethyl auristatin E (MMAE) were added to the acetylated SQFDA(Ph)2[…] (SEQ ID NO:28) meditope through the lysine amine.
Cell viability studies for the DM1 and MMAE conjugations: CellTiter-Glo® Luminescent Assay from Promega (#G7571) was used to detect cell viability. BT-474 or SKBR3 were seeded in white-walled 96-well plate and each well contained 100 μl of 10,000 BT-474 cells or 7,000 SKBR3 cells. Seeded cells were incubated at 37° C., 5% CO2 overnight for adherence. For the treatment, drugs with two fold of final concentration were prepared and 100 μL of drugs were added directly to each well. At 72 h, plates were equilibrated at room temperature and CellTiter Glo® Reagent was added to each well for cell lysis and luminescence reaction for 10 min. The luminescence was read by Biotek's Synergy 4 multi-detection microplate reader.

trastuzumab [clinical trastuzumab]
tumor cell lysis: much less effective
